Test results reported in publication PMC5681660 (2017).

How the values were obtained:
human NTCP [1] = biological target: T1, human NTCP (Homo sapiens, UniProt Q14973); experiment: Screening taurocholate uptake assay (96-well, [14C]taurocholate, 10 µM drug)
T1 sequence (Q14973 1-349): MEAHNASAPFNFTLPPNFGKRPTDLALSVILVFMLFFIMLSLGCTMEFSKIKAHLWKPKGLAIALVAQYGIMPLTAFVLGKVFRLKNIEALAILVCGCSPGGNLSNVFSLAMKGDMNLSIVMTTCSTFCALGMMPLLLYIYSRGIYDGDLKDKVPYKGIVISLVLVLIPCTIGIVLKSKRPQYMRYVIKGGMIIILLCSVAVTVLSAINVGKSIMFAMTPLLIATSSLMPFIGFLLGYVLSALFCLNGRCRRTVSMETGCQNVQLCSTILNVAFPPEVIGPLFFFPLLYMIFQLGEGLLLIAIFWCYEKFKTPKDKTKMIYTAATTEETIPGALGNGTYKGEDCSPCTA

human NTCP [2] = biological target: T1, human NTCP; experiment: Screening fluorescent competitive Myrcludex B-FITC binding assay (96-well, 10 µM drug)
HBV = conditions: HepaRG cells infected with HBV; supernatant day 7 to 10
[3] = TRIAC 1000 mg, with absorption 67%; ref 7 (supplement); cited from earlier work

| Compound | Ranking score (human NTCP [1]) | B-score binding assay (human NTCP [2]) | B-score functional assay (human NTCP [1]) | also measured |
| --- | --- | --- | --- | --- |
| COc1cc2c(c(OC)c1OC)-c1ccc(OC)c(=O)cc1[C@@H](NC(C)=O)CC2 [Colchicine] | 202.531 | -1.859 |  |  |
| CNCCC(Oc1ccc(C(F)(F)F)cc1)c1ccccc1 (stereo not drawn) [Fluoxetine hydrochloride] |  |  | -1.433 |  |
| O=C(O)Cc1cc(I)c(Oc2ccc(O)c(I)c2)c(I)c1 [TRIAC, 3,3′,5-Triiodothyroacetic acid] |  |  |  | concentration effective in reducing HBsAg (HBV): ≥ 50 µM; Expected serum concentration [3]: 1000 mg ? ~215 µM (with absorption 67%)^7 |
| Colistin sulfate |  |  |  | Ranking score (human NTCP [1]; combined ranking of functional and binding screening assays): 524.583 |
| Thimerosal | 580.436 | -0.543 | 0.511 |  |

Counter-ions that a name gives are not always drawn. Like-named read-outs stand apart in the source and are kept apart here.
